The values below come from patent US20060264508A1, “Modulation of ocular growth and myopia by gaba drugs” (priority 2001, published 2006).

In this data set the test system is goggled eyes (form-deprivation myopia). As to conditions: at the doses used; in vivo ocular examinations or inspection of bisected enucleated eyes.

Turning to `Br.COc1ccc(-c2ccc(=N)n(CCCC(=O)O)n2)cc1` [SR95531, 6-imino-3-(4-methoxy-phenyl)-1(6H)-pyridazinebutanoic acid hydrobromide], the ocular toxicity result is given as “did not cause any ocular toxicity”.
